Experimental data reported in ChEMBL document CHEMBL4359937, “Design, synthesis and evaluation of 2-amino-imidazol-4-one derivatives as potent β-site amyloid precursor protein cleaving enzyme 1 (BACE-1) inhibitors” (Bioorg Med Chem Lett, 2019).

Amino acid sequences for entries named in this document (tags omitted). A change or cut given only in a name is not applied to a line headed by its entry.
UniProt P56817: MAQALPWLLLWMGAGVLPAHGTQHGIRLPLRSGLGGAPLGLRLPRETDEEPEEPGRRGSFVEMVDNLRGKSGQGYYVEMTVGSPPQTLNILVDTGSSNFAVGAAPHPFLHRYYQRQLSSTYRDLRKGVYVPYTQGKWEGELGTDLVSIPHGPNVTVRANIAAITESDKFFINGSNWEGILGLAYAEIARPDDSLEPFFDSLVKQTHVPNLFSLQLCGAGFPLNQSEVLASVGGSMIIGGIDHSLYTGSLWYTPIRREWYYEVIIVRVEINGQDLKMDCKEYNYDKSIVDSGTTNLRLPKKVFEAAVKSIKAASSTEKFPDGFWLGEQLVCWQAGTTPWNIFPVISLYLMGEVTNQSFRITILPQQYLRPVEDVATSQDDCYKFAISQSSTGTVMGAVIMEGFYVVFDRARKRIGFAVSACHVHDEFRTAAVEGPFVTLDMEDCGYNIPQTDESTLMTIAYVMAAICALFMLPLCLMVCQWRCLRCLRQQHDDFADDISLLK

Molecular target: Beta-secretase 1 (Homo sapiens, UniProt P56817)
Test: Inhibition of human BACE1 (1 to 460 residues) expressed in baculovirus infected insect cells at 10 uM using Rh-EVNLDAEFK-quencher as substrate measured after 90 mins by FRET assay relative to control

inhibition: 94.2%
SMILES: C[C@@]1(c2cc(-c3cncnc3)c(F)cc2F)CCSC(N)=N1
